Molecules are shown by their SMILES.

Protein sequences, listed by entry. Tags and fused reporters are not part of them. Lines headed by an entry give the natural chain unless they say otherwise; changes in a name come on top.
UniProt Q96S37: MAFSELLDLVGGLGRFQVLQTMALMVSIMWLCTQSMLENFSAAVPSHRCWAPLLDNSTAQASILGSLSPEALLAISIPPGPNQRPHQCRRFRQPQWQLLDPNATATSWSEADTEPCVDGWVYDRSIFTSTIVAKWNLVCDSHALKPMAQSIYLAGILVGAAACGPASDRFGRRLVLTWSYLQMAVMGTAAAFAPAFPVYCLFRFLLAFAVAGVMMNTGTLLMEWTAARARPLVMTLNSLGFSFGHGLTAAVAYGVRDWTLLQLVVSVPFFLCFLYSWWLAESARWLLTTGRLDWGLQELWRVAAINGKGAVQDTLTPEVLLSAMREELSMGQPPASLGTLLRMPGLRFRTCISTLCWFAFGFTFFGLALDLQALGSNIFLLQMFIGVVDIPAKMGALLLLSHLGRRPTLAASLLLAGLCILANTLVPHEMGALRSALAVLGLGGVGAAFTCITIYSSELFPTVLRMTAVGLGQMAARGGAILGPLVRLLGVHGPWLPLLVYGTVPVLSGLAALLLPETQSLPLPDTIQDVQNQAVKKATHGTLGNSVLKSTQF

Experimental findings from patent US8633232B2, “Compounds, compositions and methods of using same for modulating uric acid levels” (Ardea Biosciences, Inc., priority 2008, dated 2014) are described below.

For the test, the target named is T1, hURAT1 Transporter (Homo sapiens, UniProt Q96S37).
T1 construct: Full-length human URAT1 gene (SLC22A12) was subcloned from plasmid pCMV6-XL5
Nature of the test: Uric Acid Uptake Assay. It counts as cell-based. To be noted: HEK293/urat1 cells; C14 Uric Acid 40 μM; 10 minutes at room temperature. An excerpt:
Creation of Stable Cell Lines Expressing hURAT1 Transporter: Full-length human URAT1 gene (SLC22A12) was subcloned from plasmid pCMV6-XL5 (Origene) into eukaryotic expression plasmid pCMV6/Neo (Origene) using Not I restriction sites. Gene sequencing confirmed the sequence of hURAT1 as outlined in Genbank (Accession #NM_144585.2). HEK293 human embryonic kidney cells (ATCC#CRL-1573) were propagated in EMEM tissue culture medium as described by ATCC in an atmosphere of 5% CO2 and 95% air. Transfections of HEK293 cells with the pCMV6/Neo/URAT1 construct were performed using L2000 transfection reagent (Invitrogen) as described by the manufacturer. After 24 h the transfected cells were split into 10 cm tissue culture plates and grown for 1 day after which the medium was replaced with fresh growth medium containing G418 (Gibco) at 0.5 mg/ml final concentration. Drug-resistant colonies were selected after approximately 8 days and then tested for ^14C-uric acid transport activity. The HEK293/urat1 cells are plated on Poly-D-Lysine Coated 96-well Plates at a density of 75,000 cells per well.
Cells were grown overnight (20-26 hours) at 37° C. in an incubator. Plates were allowed to come to room temperature and media was washed out with one wash of […] of Wash Buffer (125 mM Na Gluconate, 10 mM Hepes ph 7.3). […] Plates are then read on the TopCount Plate Reader and an EC50 value generated. […]

For `O=C(O)CSc1nnc(Br)n1-c1ccc(C2CC2)c2ccccc12` [Example 8, 2-(5-bromo-4-(4-cyclopropylnaphthalen-1-yl)-4H-1,2,4-triazol-3-ylthio)acetic acid], the EC50 was 1 to 30 µM.

As usually defined, the EC50 is the midpoint of the concentration-response curve. Low values mean a more potent agent, high ones a less potent agent.
